Values of other authors as cited in US4228124A, “Fumigating method and apparatus” (priority 1979, dated 1980).
Some compounds may have been tested in ways that are not shown here.

Conditions: Table 1; thermal decomposition of blowing agent; cited from earlier work

Compound: NNc1nc(NN)nc(NN)n1
- Blowing temp.: 235-290 °C
